The structures appear in SMILES notation. pIC50: −log10 of the molar value. Bounds are passed on as bounds.

By UniProt entry, the sequences of proteins in these tests, tags left out. Where a name states a change or a piece, a line headed by the entry shows the natural chain unless it says otherwise. Residues count along the entry.
UniProt Q16548, 1-151 limits assumed: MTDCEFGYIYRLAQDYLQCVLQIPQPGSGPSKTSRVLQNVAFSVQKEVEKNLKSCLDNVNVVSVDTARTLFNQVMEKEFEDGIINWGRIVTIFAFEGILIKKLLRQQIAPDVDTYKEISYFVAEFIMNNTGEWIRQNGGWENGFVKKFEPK
UniProt Q07820, 171-323 limits assumed: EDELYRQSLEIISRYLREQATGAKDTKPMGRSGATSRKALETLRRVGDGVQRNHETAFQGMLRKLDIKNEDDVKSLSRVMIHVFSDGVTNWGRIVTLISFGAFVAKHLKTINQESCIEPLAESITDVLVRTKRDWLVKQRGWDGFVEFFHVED
UniProt Q07820, 171-323 R263A limits assumed: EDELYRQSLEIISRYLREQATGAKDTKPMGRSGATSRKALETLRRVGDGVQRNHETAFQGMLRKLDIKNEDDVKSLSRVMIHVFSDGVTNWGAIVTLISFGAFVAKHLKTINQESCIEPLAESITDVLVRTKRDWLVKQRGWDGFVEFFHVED

Results on eight compounds are retold here after publication PMC6033896, “Discovery of Mcl-1 inhibitors from integrated high throughput and virtual screening” (Scientific Reports, 2018).

In one test the target is Bfl-1 (Homo sapiens, UniProt Q16548). Briefly: FP-based competitive binding assay with FAM-Bid. The following applies: for pIC50: read-out: Binding to Bfl-1 FP IC50, Bfl-1; for binding to Bfl-1: tested up to 100 µM.
The target in test [1] is T1, Mcl-1 protein (Homo sapiens, UniProt Q07820). Briefly: SPR-based solution competitive binding assay, immobilized biotin-labelled Bim BH3 peptide. As to conditions: read-out: SPR IC50; Mcl-1 20 nM; competition with immobilized Bim BH3 peptide.
Test [2] concerns the target T1, Mcl-1 protein. The experiment in a line: FP-based competitive binding assay with fluorescent labelled Bid BH3 peptide. The following applies: read-out: FP IC50, competition with fluorescent Bid probe 2 nM, 20 nM Mcl-1 for purchased compounds, 10 nM for synthesized library.
The subject of the next test is Mcl-1/Noxa interaction. The following applies: read-out: AID 1417 IC50; Dose Response Confirmation for Mcl-1/Noxa Interaction Inhibitors; ref PubChem BioAssay AID 1417; cited from earlier work.
For test [3], the system named is Bax/Bak double knockout (DKO) MEFs. The experiment in a line: MEF cell death, propidium iodide flow cytometry. The following applies: 100 µM of hits (15: 10, 20, 30 µM), 15-hour treatment.
Another test has as its system wild-type MEFs. Briefly: MEF cell death, propidium iodide flow cytometry. As to conditions: 100 µM of hits (15: 10, 20, 30 µM), 15-hour treatment. A general note: A flow cytometer gives signals particle by particle.
Another test addresses mutant Mcl-1 R263A (Homo sapiens, UniProt Q07820, R263A). Briefly: BLI-based direct binding assay. The following applies: compared with wild-type Mcl-1.
The subject of the next test is Mcl-1/Bid interaction. The following applies: read-out: AID 1418 IC50; Dose Response Confirmation for Mcl-1/Bid Interaction Inhibitors; ref PubChem BioAssay AID 1418; cited from earlier work.

Take `COc1ccc(C(=O)Nc2cccc(C=C(CCC(=O)O)c3nc4ccccc4s3)c2)cc1`: the pIC50 is under 4.00 at Bfl-1, 4.70 on Mcl-1 protein [1], 4.41 at Mcl-1 protein [2] and 5.37 with Mcl-1/Noxa interaction.
`COCCN=c1scc(-c2cccs2)n1NC=C1C=CC(=O)C(O)=C1O`: the pIC50 is under 4.00 on Bfl-1, 5.19 at Mcl-1 protein [1], 5.57 on Mcl-1 protein [2] and 5.28 in the test with Mcl-1/Noxa interaction. In addition, the “binding to Bfl-1” value on Bfl-1 was “didn’t show binding”. Further, in test [3], the “cell death induction in Bax/Bak DKO MEFs, screening of hits” value is reported as “without significant cell death induction”. Besides, the “cell death induction in wild-type MEFs, screening of hits” value in the test with wild-type MEFs is “inducing cell death”.
Regarding `CSc1ccc(C=NNc2cccc(C(=O)O)c2)cc1`, the pIC50 at Mcl-1 protein [1] was 5.77; on Mcl-1 protein [2] it was 5.72; in the test on Mcl-1/Noxa interaction it was 5.66. The “binding to mutant R263A Mcl-1 (BLI)” value at mutant Mcl-1 R263A is “no appreciable binding”.
For the compound `O=C(C=Cc1cccs1)Nc1scc(-c2ccccc2)c1C(=O)O`, the pIC50 was 4.83 at Mcl-1 protein [1], 6.30 with Mcl-1/Bid interaction and 4.63 on Mcl-1 protein [2].
Take `CC(C)CCOc1ccc(C=C2CCn3c2nc2cc(C(=O)O)ccc2c3=O)cc1`: in the test on Mcl-1/Noxa interaction, the pIC50 is 5.14.
In the case of `O=C(O)c1cccc(Cn2c(Cl)c(C=NNC(=O)c3cc4ccccc4cc3O)sc2=O)c1`, the pIC50 was under 4.00 at Bfl-1, 5.55 at Mcl-1 protein [1], 5.03 at Mcl-1 protein [2] and 5.43 with Mcl-1/Noxa interaction. Moreover, the “binding to Bfl-1” value at Bfl-1 is recorded as “didn’t show binding”.
Take `CC(=O)c1sc2nc(CSc3nnnn3-c3ccccc3)[nH]c(=O)c2c1C`: the pIC50 on Mcl-1 protein [1] was 4.97; in the test with Mcl-1/Noxa interaction, 5.77.
With `Cc1nn(-c2cccc(Cl)c2)c2nc(-c3ccco3)cc(C(=O)O)c12`, the “binding to Bfl-1 compared with Mcl-1” value on Bfl-1 (FP) is “lower binding to Bfl-1 in comparison to Mcl-1”. Further, the “binding to mutant R263A Mcl-1 (BLI)” value on mutant Mcl-1 R263A is on record as “no appreciable binding”.

For orientation: pIC50 means the negative decadic logarithm of the IC50, by convention in mol/L.
